Source: patent US8158764B2 (priority 2006, dated 2012)

Columns and labels:
[1] = Tail flick test (analgesic activity); format: in vivo
Protocol: The “Tail flick” test (test of D'Amour & Smith, 1941, Pharmacol Exp Ther; 72: 74-79) consists in placing the tail of a mouse, after administration of a product, in front of an infrared source in order to produce a nociceptive stimulus (a surface temperature of 55° C.). The reaction time (RT) of the mouse (latency between the start of the light beam and the moment the mouse withdraws its tail) was measured in duplicate at 8 times spread from […] after administration of the product. A maximal 10 second-period has been chosen as the maximal reaction time in order to avoid any tissue damage for the animal.
Products were intravenously-administered at doses comprised between 0.5 and 8 mg/kg (8 mice per group).
Two measures of reaction time were realized before administration of the product for each mouse so as to establish a base line.
The MPE % represents the percentage of possible maximal effect and corresponds to the following formula: […]

[2] = Hot plate test (analgesic activity); format: in vivo; details: mouse, intravenous
[3] = Intestinal transit in mice

Structure (SMILES): CN1CC[C@]23c4c5ccc(O)c4O[C@H]2[C@@H](O)C=C[C@H]3[C@H]1C5 [Morphine, reference compound]
- ED50 ([1]; Mus musculus, iv): 3.3 mg/kg
- ED50, tail flick test ([1]; mouse, intravenous): 3.273 mg/kg
- Max Effect (time), tail flick test ([1]; mouse, intravenous): 30 min
- ED50 [2]: 3.8 mg/kg
- Effet max (time), hot plate test [2]: 30 min
- transit inhibition ([3]; at the maximal analgesic effect after iv injection at ED50): about 90%
- effect on transit while analgesic activity is maintained at maximum ([3]; in words): transit is completely stopped
- transit inhibition ([3]; maintenance of maximal analgesia during 6 h30, two-fold ED50 (morphine re-injected every hour)): 82%
